Data published in ChEMBL document CHEMBL4184143, “Structure-Based Discovery of 4-(6-Methoxy-2-methyl-4-(quinolin-4-yl)-9H-pyrimido[4,5-b]indol-7-yl)-3,5-dimethylisoxazole (CD161) as a Potent and Orally Bioavailable BET Bromodomain Inhibitor” (J Med Chem, 2017).
pIC50: −log10 of the molar value.

Tests used:
MOLM-13 = assay: Growth inhibition of human MOLM13 cells after 4 days by WST-8 assay; type: functional, cell-based; settings: MOLM-13, 96 h
BT-474 = assay: Cytotoxicity against human BT474 cells assessed as cell growth inhibition after 4 days by WST-8 assay; type: functional, cell-based; settings: BT-474, 96 h
SUM149PT = assay: Cytotoxicity against human SUM149PT cells assessed as cell growth inhibition after 4 days by WST-8 assay; type: functional, cell-based; settings: 96 h
MV4-11 = assay: Growth inhibition of human MV4-11 cells after 4 days by WST-8 assay; type: functional, cell-based; settings: MV4-11, 96 h
MDA-MB-468 = assay: Cytotoxicity against human MDA-MB-468 cells assessed as cell growth inhibition after 4 days by WST-8 assay; type: functional, cell-based; settings: MDA-MB-468, 96 h
BT-549 = assay: Cytotoxicity against human BT549 cells assessed as cell growth inhibition after 4 days by WST-8 assay; type: functional, cell-based; settings: BT-549, 96 h
HCC38 = assay: Cytotoxicity against human HCC38 cells assessed as cell growth inhibition after 4 days by WST-8 assay; type: functional, cell-based; settings: HCC38, 96 h
MDA-MB-157 = assay: Cytotoxicity against human MDA-MB-157 cells assessed as cell growth inhibition after 4 days by WST-8 assay; type: functional, cell-based; settings: MDA-MB-157, 96 h
MDA-MB-361 = assay: Cytotoxicity against human MDA-MB-361 cells assessed as cell growth inhibition after 4 days by WST-8 assay; type: functional, cell-based; settings: MDA-MB-361, 96 h
[1] = target: T1, Serine/threonine-protein kinase PLK4 (Homo sapiens, UniProt O00444); assay: Inhibition of human PLK4 (M1 to S273 residues) expressed in mammalian expression system
T1 sequence (O00444 whole entry): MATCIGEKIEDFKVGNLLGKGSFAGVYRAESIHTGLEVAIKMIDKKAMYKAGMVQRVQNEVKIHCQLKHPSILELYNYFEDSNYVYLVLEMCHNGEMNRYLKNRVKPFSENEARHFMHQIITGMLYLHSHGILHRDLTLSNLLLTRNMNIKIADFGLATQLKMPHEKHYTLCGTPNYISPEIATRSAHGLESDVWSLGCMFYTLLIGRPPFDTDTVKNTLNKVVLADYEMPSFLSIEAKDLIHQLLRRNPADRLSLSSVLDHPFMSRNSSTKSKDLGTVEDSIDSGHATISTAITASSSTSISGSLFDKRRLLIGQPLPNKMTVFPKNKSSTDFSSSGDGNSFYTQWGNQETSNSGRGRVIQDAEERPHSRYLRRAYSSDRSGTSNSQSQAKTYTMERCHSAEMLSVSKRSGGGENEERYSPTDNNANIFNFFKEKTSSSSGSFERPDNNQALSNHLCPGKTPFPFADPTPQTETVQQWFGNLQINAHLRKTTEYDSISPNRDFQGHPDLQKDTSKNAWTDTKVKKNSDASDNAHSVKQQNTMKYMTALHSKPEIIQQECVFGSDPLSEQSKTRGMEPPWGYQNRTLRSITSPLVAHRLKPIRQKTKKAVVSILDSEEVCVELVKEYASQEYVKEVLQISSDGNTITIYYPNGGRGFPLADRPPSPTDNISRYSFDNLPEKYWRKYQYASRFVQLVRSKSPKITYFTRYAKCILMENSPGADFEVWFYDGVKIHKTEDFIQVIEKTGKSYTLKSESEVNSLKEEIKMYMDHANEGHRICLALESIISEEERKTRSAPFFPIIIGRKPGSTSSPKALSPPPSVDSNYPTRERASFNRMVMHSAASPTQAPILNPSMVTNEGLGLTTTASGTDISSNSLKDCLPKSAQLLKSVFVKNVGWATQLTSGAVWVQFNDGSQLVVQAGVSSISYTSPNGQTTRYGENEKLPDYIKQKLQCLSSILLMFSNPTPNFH

HCC1395 = assay: Cytotoxicity against human HCC1395 cells assessed as cell growth inhibition after 4 days by WST-8 assay; type: functional, cell-based; settings: HCC1395, 96 h
BT-20 = assay: Cytotoxicity against human BT20 cells assessed as cell growth inhibition after 4 days by WST-8 assay; type: functional, cell-based; settings: BT-20, 96 h
[2] = Cytotoxicity against human HCC1428 cells assessed as cell growth inhibition after 4 days by WST-8 assay; type: functional, cell-based; settings: HCC1428, 96 h
MDA-MB-231 = assay: Cytotoxicity against human MDA-MB-231 cells assessed as cell growth inhibition after 4 days by WST-8 assay; type: functional, cell-based; settings: MDA-MB-231, 96 h
MDA-MB-453 = assay: Cytotoxicity against human MDA-MB-453 cells assessed as cell growth inhibition after 4 days by WST-8 assay; type: functional, cell-based; settings: MDA-MB-453, 96 h
MDA-MB-436 = assay: Cytotoxicity against human MDA-MB-436 cells assessed as cell growth inhibition after 4 days by WST-8 assay; type: functional, cell-based; settings: MDA-MB-436, 96 h

SMILES	pIC50 (MOLM-13)	pIC50 (BT-474)	pIC50 (SUM149PT)	pIC50 (MV4-11)	pIC50 (MDA-MB-468)	pIC50 (BT-549)	pIC50 (HCC38)	pIC50 (MDA-MB-157)	pIC50 (MDA-MB-361)	pIC50 [1]	pIC50 (HCC1395)	pIC50 (BT-20)	pIC50 [2]	pIC50 (MDA-MB-231)	pIC50 (MDA-MB-453)	pIC50 (MDA-MB-436)
COc1cc2c(cc1-c1c(C)noc1C)[nH]c1ccnc(-c3c(C4CC4)n[nH]c3C)c12	7.18															
COc1cc2c(cc1-c1c(C)noc1C)[nH]c1nc(C)nc(-c3ccnc4ccccc34)c12	7.28	6.36	6.22	7.59	5.99	6.39	6.55	7.41	6.72	5.41	5.91	5.77	6.50	6.61	6.73	5.77
